biological target: Orexin/Hypocretin receptor type 1 (Homo sapiens, UniProt O43613); assay: The intrinsic orexin receptor antagonist activity of a compound which may be used in the present invention may be determined by these assays.

By UniProt entry, the sequences of proteins in these tests, tags left out.
UniProt O43613, whole entry: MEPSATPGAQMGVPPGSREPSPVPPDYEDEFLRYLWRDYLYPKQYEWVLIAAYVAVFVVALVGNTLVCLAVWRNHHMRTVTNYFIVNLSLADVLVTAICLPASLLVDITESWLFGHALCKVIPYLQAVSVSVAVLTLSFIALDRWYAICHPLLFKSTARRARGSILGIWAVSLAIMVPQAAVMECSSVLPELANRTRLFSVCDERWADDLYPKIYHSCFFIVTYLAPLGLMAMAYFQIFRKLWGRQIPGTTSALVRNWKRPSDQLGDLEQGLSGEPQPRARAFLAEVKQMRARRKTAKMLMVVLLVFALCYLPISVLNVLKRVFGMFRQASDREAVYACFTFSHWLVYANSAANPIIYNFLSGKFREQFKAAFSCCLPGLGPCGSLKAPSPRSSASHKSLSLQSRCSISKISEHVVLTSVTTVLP

Ki [nM]	Structure (SMILES)
1890	COc1ccc(C(=O)N2C[C@H](Oc3nccc(C#N)c3C)CC[C@H]2C)c(C2CC2)n1
5760	COc1ccc(C(=O)N2C[C@H](Oc3nccc(C#N)c3C)CC[C@H]2C)c(-c2ccncc2)n1
1170	COc1ccc(C(=O)N2C[C@H](Oc3nccc(C#N)c3C)CC[C@H]2C)c(-n2nccn2)c1
757	Cc1c(C#N)ccnc1O[C@@H]1CC[C@@H](C)N(C(=O)c2ccccc2OC(F)(F)F)C1
1610	Cc1c(C#N)ccnc1O[C@@H]1CC[C@@H](C)N(C(=O)c2ccncc2-c2ccccc2)C1
1450	CSc1ccc(C(=O)N2C[C@H](Oc3nccc(C#N)c3C)CC[C@H]2C)c(-n2nccn2)n1
165	Cc1c(C#N)ccnc1O[C@@H]1CC[C@@H](C)N(C(=O)C2=C(c3ccccn3)CCC2)C1
911	COc1ccc(C(=O)N2C[C@H](Oc3nccc(C#N)c3C)CC[C@H]2C)c(C2CCC2)n1
269	Cc1c(C#N)ccnc1O[C@@H]1CC[C@@H](C)N(C(=O)c2cccc(F)c2-n2nccn2)C1
442	COc1c(C#N)ccnc1O[C@@H]1CC[C@@H](C)N(C(=O)c2ccc(F)cc2-n2nccn2)C1
150	Cc1c(C#N)ccnc1O[C@@H]1CC[C@@H](C)N(C(=O)c2ccccc2-c2cscn2)C1
1480	Cc1c(C#N)ccnc1O[C@@H]1CC[C@@H](C)N(C(=O)c2sncc2-c2ccccc2)C1
357	Cc1c(C#N)ccnc1O[C@@H]1CC[C@@H](C)N(C(=O)c2nscc2-c2ccccc2)C1
72	Cc1c(C#N)ccnc1O[C@@H]1CC[C@@H](C)N(C(=O)c2c(F)cccc2-c2nccs2)C1
605	Cc1c(C#N)ccnc1O[C@@H]1CC[C@@H](C)N(C(=O)c2ccccc2OC(C)C)C1
4300	Cc1c(C#N)ccnc1O[C@@H]1CC[C@@H](C)N(C(=O)c2nscc2-n2nccn2)C1
182	Cc1c(C#N)ccnc1O[C@@H]1CC[C@@H](C)N(C(=O)c2ccccc2-c2ncco2)C1
58	CCc1c(C#N)ccnc1O[C@@H]1CC[C@@H](C)N(C(=O)c2ccccc2-n2nccn2)C1
144	Cc1c(C#N)ccnc1O[C@@H]1CC[C@@H](C)N(C(=O)c2ccc(Cl)cc2-n2nccn2)C1
296	Cc1c(C#N)ccnc1O[C@@H]1CC[C@@H](C)N(C(=O)c2cc(F)ccc2-n2nccn2)C1
64	Cc1c(C#N)ccnc1O[C@@H]1CC[C@@H](C)N(C(=O)c2ccccc2-c2nccs2)C1
